# AlphaSeq binding of Ab-14 light chain variants to a spike HR2 peptide

Source: Engelhart et al. 2022 (doi:10.1038/s41597-022-01779-4), MIT Lincoln Laboratory and A-Alpha Bio; data file from the FLAb repository.

Target: peptide PDVDLGDISGINAS, taken from heptad repeat 2 (HR2) of SARS-CoV-2 spike.

Parent scFv Ab-14: VH joined to VL by three GGGGS repeats. Changes lie in the light chain CDRs alone.
VH: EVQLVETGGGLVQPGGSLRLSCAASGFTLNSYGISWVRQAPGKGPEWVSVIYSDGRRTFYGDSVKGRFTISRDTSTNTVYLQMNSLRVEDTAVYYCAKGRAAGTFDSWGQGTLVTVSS
VL: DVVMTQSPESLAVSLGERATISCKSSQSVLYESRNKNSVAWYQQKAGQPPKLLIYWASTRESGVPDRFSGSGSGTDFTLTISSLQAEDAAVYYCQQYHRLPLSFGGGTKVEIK

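Variants in AAYL50 differ from the parent at up to three CDR positions; double and triple changes were sampled at random. In AlphaSeq, yeast of one mating type display the scFv and yeast of the other type display the target. The frequency of each diploid, read from paired DNA barcodes, reflects how well the two displayed proteins bind. Scores were corrected for input abundance and mapped to Kd with protein pairs of known affinity run in the same pool. Mating was done three times.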

Substitutions are numbered in sequence along the VL above, starting at 1 (not Kabat).
Values are log10 of the apparent Kd in nM; lower means stronger binding.
A mean of the replicates is given; it leaves out those without a signal.
"nd" marks a missing value. The strain was present, yet no cells mated with the target were sequenced in that replicate, which points to weak or no binding.
Empty control strains, which show no peptide, gave a signal in 18% of pairings with library AAYL50; the median was 4.19 and 95% of these signals were weaker than 2.99. No background was subtracted. The control count says in how many pairings with the empty strains this scFv gave a signal, with their mean in brackets.

changes	replicates, log10 nM	log10 Kd (nM), mean	control signals
S33R+R99C+P101A	2.13 2.37 2.26	2.25	4 of 9 (4.32)
S28Q+E61D+Q95C	2.10 2.15 2.15	2.13	2 of 9 (4.68)
S28L+S33P+S38Y	3.02 2.47 3.40	2.96	3 of 9 (4.56)
N35E+Q96N+H98G	nd nd 3.75	3.75	1 of 9 (2.97)
S33I+N35P+P101N	3.04 3.12 4.06	3.41	6 of 9 (4.73)
R34L+V39D+S62H	nd nd 3.83	3.83	2 of 9 (4.03)
S58K+T59L+E61H	nd nd nd	nd	1 of 9 (3.43)
S58C+L102E	nd nd nd	nd	0 of 9
S25Q+S38E+Y97W	2.14 1.87 2.60	2.20	3 of 9 (4.05)
R34E+K36W+S103W	2.30 2.72 2.98	2.67	1 of 9 (4.95)
E32P+S33C+N35C	2.81 2.37 3.12	2.77	3 of 9 (3.87)
S26N+E32F+L100M	nd nd nd	nd	0 of 9
L100M	0.72 0.93 0.74	0.80	2 of 9 (4.75)
S26M+Q27A+S103T	0.86 1.01 2.76	1.54	0 of 9
A57P+Q95C+H98V	nd nd nd	nd	2 of 9 (4.23)
S26Y+Q27D+K36E	1.76 1.45 2.20	1.80	1 of 9 (3.73)
S25H+E61Y+L102A	0.88 1.14 1.13	1.05	1 of 9 (3.50)
K36A+A40F+L102S	6.14 nd 3.88	5.01	3 of 9 (4.29)
S33N+E61G+S103Y	2.30 2.63 2.77	2.57	4 of 9 (5.03)
N35Q+S62V+Y97G	0.92 1.16 1.11	1.07	2 of 9 (3.71)
Q96C+H98A	nd nd nd	nd	0 of 9
L30I+T59M+R60M	nd 3.98 5.84	4.91	4 of 9 (4.17)
K36E+W56M+S62H	0.61 0.96 0.66	0.75	2 of 9 (4.36)
E61S	1.27 1.37 1.36	1.33	5 of 9 (4.89)
S26T+L30G+N35F	1.80 1.96 1.88	1.88	3 of 9 (3.90)
V29S+E32L+S38G	2.48 2.47 3.08	2.68	2 of 9 (4.09)
R34C+A57N+P101L	nd nd nd	nd	0 of 9
E32V+N35T+K36S	nd 3.89 4.19	4.04	4 of 9 (4.22)
E32T+A40S+E61W	nd nd nd	nd	3 of 9 (4.18)
K24P+S62Q+R99W	nd nd nd	nd	0 of 9
R60S+H98R+L100V	3.74 nd nd	3.74	2 of 9 (3.79)
T59W+Y97M+P101T	nd 2.39 nd	2.39	1 of 9 (4.08)
S26G+V39H+E61Q	nd nd nd	nd	4 of 9 (4.19)
V29N+E32N+P101T	nd nd 4.07	4.07	0 of 9
Q27W+S38V+W56I	nd nd nd	nd	0 of 9
N37S+A57N+L102Y	nd nd nd	nd	0 of 9
E61P+S62G+Q95Y	nd nd 3.23	3.23	1 of 9 (5.06)
S33E+R34T+Q96M	0.99 1.08 1.02	1.03	3 of 9 (4.26)
S28E+Y31F+L102M	0.68 0.95 1.05	0.89	0 of 9

5 of these entries, quoted again:

changes	replicates, log10 nM	log10 Kd (nM), mean	control signals
A57P+Q95C+H98V	nd nd nd	nd	2 of 9 (4.23)
V29S+E32L+S38G	2.48 2.47 3.08	2.68	2 of 9 (4.09)
Q27W+S38V+W56I	nd nd nd	nd	0 of 9
S33E+R34T+Q96M	0.99 1.08 1.02	1.03	3 of 9 (4.26)
S58C+L102E	nd nd nd	nd	0 of 9